According to US20160120858A1, “PHARMACEUTICAL COMPOSITION CONTAINING CLIOQUINOL FOR TREATING AUTISM SPECTRUM DISORDERS” (ACADEMIA SINICA, priority 2014, published 2016):
Entries after “also recorded” stand apart in the source; their conditions may differ.

What was measured:
AMPAR = assay: AMPA-fEPSPs, input-output and paired pulse ratio, hippocampal slices; format: cell-based, mouse; conditions: 4 uM, WT and Shank2^−/− SC-CA1 synapses
Protocol: For electrophysiological experiments, sagittal hippocampal slices (400 uM thick for extracellular, 300 uM thick for intracellular recordings) of Shank2^-/- mice (or ZnT3^-/- mice) and their wild-type littermates were prepared using a vibratome (Leica VT1200) in ice-cold dissection buffer containing (in mM) 212 sucrose, 25 NaHCO3, 5 KCl, 1.25 NaH2PO4, 0.5 CaCl2, 3.5 MgSO4, 10 D-glucose, 1.25 L-ascorbic acid, and 2 Na-pyruvate bubbled with 95% 02/5% CO2. CA3 was removed to prevent epileptiform activity. Slices were restored for 1 hour in 32° C. in a normal artificial CSF (ACSF) (In units of mM: 124 NaCl, 2.5 kCl, 1 NaH2PO4, 25 NaHCO3, 10 glucose, 2 CaC12, 2 Mg504 oxidized by 95% 02/5% CO2) For the recording, a single slice was moved to and maintained in submerged-type chamber at 28° C., continuously perfused with ACSF (2 mL/minute) saturated with 95% 02/5% CO2. Stimulation and recording pipettes were pulled from borosilicate glass capillaries (Harvard Apparatus) using a micropipette electrode puller ([…]). […] Field excitatory postsynaptic potentials (fEPSPs) were recorded in the stratum radiatum of the hippocampal CA1 region using pipettes filled with ACSF (1 MΩ). fEPSP was amplified (Multiclamp 700B, Molecular Devices), and digitized (Digidata 1440A, Molecular Devices) for measurements. […]

Tbr1^+/− mice = assay: Three-chamber social interaction assay, Tbr1 mice; format: in vivo, mouse; conditions: 30 mg/kg, 3 hours before test
Description: (§1) All mice were backcrossed into a C57BL/6 background, and housed and bred in a mouse vivarium at the Korea Advanced Institute of Science and Technology (KAIST, Shank2^−/−mice) and at Academia Sinica (Tbr1^+/− mice). Pups were kept with the dam until weaning at postnatal day 21. After weaning, animals were group housed in mixed-genotype groups of 3 to 5 mice per cages, and randomly subjected to electrophysiological and behavioral experiments. Animals at 3 to 5 weeks of age were used for electrophysiological experiments; male animals at 2 to 4 months of age were used for behavioral assays. For TFL-Zn staining, male animals at 8 weeks (for Shank2^−/−mice) were used. Wild-type littermates were used as controls.
(§2) The injection was performed 2 hours before (Shank2^−/− mice and wild-type littermates), or 3 hours before (Tbr1^+/− mice and wild-type littermates) behavioral assays at the discretion of the facility.
(§3) Testing was conducted in dedicated behavioral test rooms during the light phase (three-chamber test) and the dark phase (repetitive behaviors and open field test).
(§4) In short, the assay consisted of three phases of 10 minutes duration: habituation, social interaction (Stranger1 vs. Object), and social novelty recognition (Stranger 1 vs. Stranger 2). Exploration was defined as each instance in which wild-type or mutant mouse tries to sniff Object/Stranger, or orients its nose towards and come close to object/stranger. Individual movement tracks were analyzed by Ethovision 10.0 (Noldus) and modified by custom-designed software MatLab (Mathworks) to generate heat maps. Time spent in exploration was analyzed by the researcher who was blinded to the subject genotype (in Shank2 mice), or by using the Smart Video Tracking System (Panlab, in Tbr1 mice). In addition to exploration time, the preference index, which represents a numerical difference between time spent exploring the targets (Stranger1 vs. Object, or Stranger 2 vs. Stranger 1) divided by total time spent exploring both targets, as described previously.

NMDAR [1] = assay: Simultaneous NMDA- and AMPA-eEPSCs at −40 mV, patch-clamp, hippocampal slices; format: cell-based, mouse; conditions: CQ 4 uM, WT and Shank2^−/− SC-CA1 synapses
Protocol: For electrophysiological experiments, sagittal hippocampal slices (400 uM thick for extracellular, 300 uM thick for intracellular recordings) of Shank2^−/− mice (or ZnT3^−/− mice) and their wild-type littermates were prepared using a vibratome (Leica VT1200) in ice-cold dissection buffer containing (in mM) 212 sucrose, 25 NaHCO3, 5 KCl, 1.25 NaH2PO4, 0.5 CaCl2, 3.5 MgSO4, 10 D-glucose, 1.25 L-ascorbic acid, and 2 Na-pyruvate bubbled with 95% 02/5% CO2. CA3 was removed to prevent epileptiform activity. […]
Whole-cell patch-clamp recordings of hippocampal CA1 pyramidal neurons were also made using a MultiClamp 700B amplifier (Molecular Devices) and Digidata 1440A (Molecular Devices). During whole-cell patch-clamp recordings, series resistance was monitored each sweep by measuring the peak amplitude of the capacitance currents in response to short hyperpolarizing step pulse (5 mV, 40 ms); only cells with a change in <25% were included in the analysis. […] AMPAR-mediatedEPSCs were recorded at −70 mV, and 30 consecutive responses were recorded after stable baseline. […] NMDA component was measured at 60 ms after the stimulation. The NMDA/AMPA ratio was determined by dividing the mean value of 30 NMDA components of EPSPs by the mean value of 30 AMPAR-mediated EPSC peak amplitudes. […] NMDA/AMPA ratio at −40 mV was calculated by using both values, and monitored during the experimental process. […]

Shank2^−/− mice = assay: Three-chamber social interaction assay, Shank2 mice; format: in vivo, mouse; conditions: 30 mg/kg i.p., 2 hours prior to test
Description: as §1, §2, §3, §4
Two hours after CQ treatment, the mice were subjected to a three-chamber social interaction test, which compares the preference of a mouse for a stranger mouse versus a novel inanimate object.

ZnT3 protein = ZnT3 protein level in whole brain crude synaptosomes (immunoblot); format: in vivo, mouse; conditions: WT and Shank2^−/− mice (8 weeks); 30 mg/kg i.p. 2 hours before sample preparation
Protocol: Mice were acutely injected with CQ (30 mg/kg; i.p.) 2 hours before sample preparation and immunoblot analysis. (n=4 for each group, NS indicates “not significant”, one-way ANOVA).
Crude synaptosomes were prepared from Shank2^−/−mice (Won H, et al. Autistic-like social behavior in Shank2-mutant mice improved by restoring NMDA receptor function. Nature 486, 261-265 (2012)). In other words, mouse brains (2 months old) were homogenized in ice-cold homogenization buffer (0.32 M sucrose, 10 mM HEPES pH 7.4, 2 mM EDTA, protease inhibitors, phosphatase inhibitors). Homogenates were centrifuged at 900×g for 10 minutes. The resulting supernatant was centrifuged again at 12,000×g for 15 minutes. The pellet was resuspended in homogenization buffer and centrifuged at 13,000×g for 15 minutes (the resulting pellet is P2; crude synaptosomes).

NMDAR [2] = assay: NMDA/AMPA ratio of eEPSCs (−70 mV/+40 mV), whole-cell patch-clamp, hippocampal slices; format: cell-based, mouse; conditions: 4 uM bath-applied
Protocol: For electrophysiological experiments, sagittal hippocampal slices (400 uM thick for extracellular, 300 uM thick for intracellular recordings) of Shank2^−/− mice (or ZnT3^−/− mice) and their wild-type littermates were prepared using a vibratome (Leica VT1200) in ice-cold dissection buffer containing (in mM) 212 sucrose, 25 NaHCO3, 5 KCl, 1.25 NaH2PO4, 0.5 CaCl2, 3.5 MgSO4, 10 D-glucose, 1.25 L-ascorbic acid, and 2 Na-pyruvate bubbled with 95% 02/5% CO2. CA3 was removed to prevent epileptiform activity. Slices were restored for 1 hour in 32° C. in a normal artificial CSF (ACSF) (In units of mM: 124 NaCl, 2.5 kCl, 1 NaH2PO4, 25 NaHCO3, 10 glucose, 2 CaC12, 2 Mg504 oxidized by 95% 02/5% CO2) For the recording, a single slice was moved to and maintained in submerged-type chamber at 28° C., continuously perfused with ACSF (2 mL/minute) saturated with 95% 02/5% CO2. Stimulation and recording pipettes were pulled from borosilicate glass capillaries (Harvard Apparatus) using a micropipette electrode puller (Narishege).
Whole-cell patch-clamp recordings of hippocampal CA1 pyramidal neurons were also made using a MultiClamp 700B amplifier (Molecular Devices) and Digidata 1440A (Molecular Devices). During whole-cell patch-clamp recordings, series resistance was monitored each sweep by measuring the peak amplitude of the capacitance currents in response to short hyperpolarizing step pulse (5 mV, 40 ms); only cells with a change in <25% were included in the analysis. […] AMPAR-mediatedEPSCs were recorded at −70 mV, and 30 consecutive responses were recorded after stable baseline. […] NMDA component was measured at 60 ms after the stimulation. The NMDA/AMPA ratio was determined by dividing the mean value of 30 NMDA components of EPSPs by the mean value of 30 AMPAR-mediated EPSC peak amplitudes. […] AMPAR-mediated EPSC was determined as a peak amplitude of EPSC, and NMDAR-mediated EPSC as a component at 60 ms after stimulation. NMDA/AMPA ratio at −40 mV was calculated by using both values, and monitored during the experimental process. […]

Structure (SMILES): Oc1c(I)cc(Cl)c2cccnc12 [clioquinol, 5-Chloro-7-Iodo-8-Hydroxyquinoline]
- Paired pulse ratio (AMPAR): had no effect
- Paired pulse ratio (AMPAR; listed as CQ): has no effect on the paired pulse ratio
- Social interaction (time exploring targets, social preference index) (Tbr1^+/− mice; Tbr1^+/− (HT) mice): improved social interaction deficiencies
- Social interaction (time exploring targets, social preference index) (Tbr1^+/− mice; Tbr1^+/− (HT) mice, listed as CQ): enhances social interaction; also recorded: improves social interaction
- Social interaction (time exploring targets, social preference index) (Tbr1^+/− mice; wild-type mice): had no effect
- Social interaction (time exploring targets, social preference index) (Tbr1^+/− mice; wild-type mice, listed as CQ): has no effect
- NMDA/AMPA ratio of eEPSCs at −40 mV (NMDAR [1]): increased
- NMDA/AMPA ratio of eEPSCs at −40 mV (NMDAR [1]; listed as CQ): increases the NMDA/AMPA ratio
- Social interaction (exploration/sniffing time, social preference index) (Shank2^−/− mice; Shank2^−/− (KO) mice): improved
- Social interaction (exploration/sniffing time, social preference index) (Shank2^−/− mice; Shank2^−/− (KO) mice, listed as Clioquinol): improves social interaction
- Social interaction (exploration/sniffing time, social preference index) (Shank2^−/− mice; wild-type (WT) mice): not affected
- Social interaction (exploration/sniffing time, social preference index) (Shank2^−/− mice; wild-type (WT) mice, listed as Clioquinol): has no effect
- Total level of ZnT3 protein (ZnT3 protein): has no effect on the total level of ZnT3 protein
- NMDA/AMPA ratio (NMDAR function) (NMDAR [2]; Shank2^−/− SC-CA1 synapses): restored the NMDAR function to a normal level
- NMDA/AMPA ratio (NMDAR function) (NMDAR [2]; Shank2^−/− SC-CA1 synapses, listed as Clioquinol): normalizes the NMDA/AMPA ratio
- NMDA/AMPA ratio (NMDAR function) (NMDAR [2]; wild-type synapses): had no influence
